For this data set the following is noted: mouse, in vivo.

For “indoleacetic acid derivatized high-amylose maize starch [HAMSIAA]”, the “content of IAA in blood serum” value was “significantly increased” and the “content of IAA in feces” value was “significantly increased”.

The values above are taken from US20240262934A1, “STARCH-INDOLE-ACID DERIVATIVE, PREPARATION METHOD THEREFOR, AND USE THEREOF” (SHANDONG SHANWEI IMMUNOTECH CO., LTD., priority 2021, published 2024).
